This is an account of results in patent US20240101548A1, “HYDROXAMATE COMPOUND, PREPARATION METHOD THEREFOR AND APPLICATION THEREOF” (SHENZHEN CHIPSCREEN BIOSCIENCES CO., LTD., priority 2020, published 2024).

The nature of this data set: In-vivo pharmacokinetic test in mice. More on the design: species or system mouse. The note with it: BALB/c female mice, gavage 10 mg/kg, plasma. As for the experimental part:
LC-MS/MS method is used to determine the drug concentration in the plasma of mice at different times after intragastric administration of the compound of the example. Relevant pharmacokinetic parameters are calculated to study the pharmacokinetic behavior of the compound of the present invention in mice, thereby evaluating the pharmacokinetic characteristics thereof.
Test animal was healthy adult BALB/c female mouse (provided by Chengdu Yaokang Biotechnology Co., Ltd.);
Compound administration and sample collection: compound was administered to BALB/c female mice by gavage (10 mg/kg). At 0.25, 0.5, 1, 2, 4, 6, 8, and 24 hours after administration, 60 μL of whole blood of the mouse fundus venous plexus were collected and centrifuged at 4000 rpm for 10 min to provide plasma.
Sample analysis: 10 μL of mouse plasma samples were respectively added with 290 μL of acetonitrile solution containing internal standard to precipitate proteins. After swirling for 10 min and centrifuging at 4000 rpm for 10 min, 200 μL of supernatant was added to 96-well plate, and analyzed by LC-MS/MS at an injection volume of 1 μL.

By AUC is commonly meant concentration integrated over time. A higher AUC goes with more exposure. As usually defined, the Cmax is the maximum level reached in the sampled fluid or tissue. Consider BMS-986165, for which the AUC turned out to be 10.1 µM·h and the Cmax came out at 4.27 µM.
